For three compounds, Ki results are on record in ChEMBL document CHEMBL1123066, “N alpha-(diphenoxyphosphoryl)-L-alanyl-L-proline, N alpha-[bis (4-nitrophenoxy)phosphoryl]-L-alanyl-L-proline, and N alpha-[ (2-phenylethyl)phenoxyphosphoryl]-L-alanyl-L-proline: releasers of potent inhibitors of angiotensin converting enzyme at physiological pH and temperature” (J Med Chem, 1985).

By UniProt entry, the sequences of proteins in these tests, tags left out. Residues count along the entry.
UniProt P12822, 34-1310 limits assumed: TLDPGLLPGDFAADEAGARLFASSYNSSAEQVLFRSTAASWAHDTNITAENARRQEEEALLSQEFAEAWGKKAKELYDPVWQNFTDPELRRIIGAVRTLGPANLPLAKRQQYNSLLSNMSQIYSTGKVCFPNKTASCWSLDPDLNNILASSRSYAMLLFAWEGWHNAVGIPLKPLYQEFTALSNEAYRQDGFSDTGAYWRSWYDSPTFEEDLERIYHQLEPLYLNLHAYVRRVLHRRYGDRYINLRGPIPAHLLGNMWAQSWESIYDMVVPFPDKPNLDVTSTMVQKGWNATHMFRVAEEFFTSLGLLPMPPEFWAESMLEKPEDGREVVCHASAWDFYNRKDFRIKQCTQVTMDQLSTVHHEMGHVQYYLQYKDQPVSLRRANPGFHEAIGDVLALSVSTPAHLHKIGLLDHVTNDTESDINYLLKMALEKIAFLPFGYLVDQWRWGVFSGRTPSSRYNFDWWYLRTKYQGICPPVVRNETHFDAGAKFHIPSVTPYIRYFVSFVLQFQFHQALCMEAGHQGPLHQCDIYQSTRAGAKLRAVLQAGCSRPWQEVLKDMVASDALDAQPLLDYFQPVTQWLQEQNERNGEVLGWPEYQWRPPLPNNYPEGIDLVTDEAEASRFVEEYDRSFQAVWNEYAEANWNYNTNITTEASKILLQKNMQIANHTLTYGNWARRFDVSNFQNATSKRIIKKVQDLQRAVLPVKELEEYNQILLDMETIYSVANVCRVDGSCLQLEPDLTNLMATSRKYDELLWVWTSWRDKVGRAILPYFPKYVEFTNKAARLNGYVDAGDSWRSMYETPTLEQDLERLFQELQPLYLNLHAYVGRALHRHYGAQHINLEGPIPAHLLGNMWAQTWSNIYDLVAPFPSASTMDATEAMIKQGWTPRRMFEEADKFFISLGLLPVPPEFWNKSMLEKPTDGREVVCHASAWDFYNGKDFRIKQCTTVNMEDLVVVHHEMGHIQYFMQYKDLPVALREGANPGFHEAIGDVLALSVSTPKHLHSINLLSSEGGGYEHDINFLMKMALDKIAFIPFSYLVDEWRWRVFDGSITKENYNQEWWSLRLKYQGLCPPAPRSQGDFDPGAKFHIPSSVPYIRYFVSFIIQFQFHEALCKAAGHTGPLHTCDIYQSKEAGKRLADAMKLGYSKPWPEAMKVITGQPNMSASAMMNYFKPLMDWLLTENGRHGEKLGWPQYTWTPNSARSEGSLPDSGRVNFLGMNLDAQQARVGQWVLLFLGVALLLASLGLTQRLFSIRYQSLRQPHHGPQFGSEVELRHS

The assay deals with Angiotensin-converting enzyme (Oryctolagus cuniculus, UniProt P12822). As to the kind of experiment: Inhibition of Angiotensin I converting enzyme from rabbit lungs at pH 7.5.
A word on the Ki: it is the equilibrium dissociation constant of an inhibitor or competing ligand from its target. Higher therefore signals weaker binding. For `CCOP(=O)(O)N[C@@H](C)C(=O)N1CCC[C@H]1C(=O)O`, the Ki was determined as 1.2 nM. This lies in the single-digit nanomolar range.
To `COP(=O)(O)N[C@@H](C)C(=O)N1CCC[C@H]1C(=O)O` belongs 2.6 nM; to `CC(C)OP(=O)(O)N[C@@H](C)C(=O)N1CCC[C@H]1C(=O)O`, 1.4 nM.
